# Measured values as given in patent publication US6969760B2, “Jak kinases and regulation of cytokine signal transduction” (St. Jude Children's Research Hospital, priority 1993, dated 2005).
# Test system: Jak3 and Jak1
# Assay: IL-2/IL-4-induced tyrosine phosphorylation of Jaks in CTLL cells
# Format: cell-based, murine
# Method: IL-2 and IL-4 stimulation of Jak1 and Jak3 tyrosine phosphorylation and activation of Jak3 in vitro kinase activity. FIG. 9A: CTLL cells were deprived of growth factors for 14 hr and were either left unstimulated (lanes 1, 4, 7 and 10), were stimulated with 100 U/ml with IL-2 (Cetus) for 10 min (lanes 2,5,8 and 11) or were stimulated with 100 ng/ml of IL-4 (R&D) for 10 min (lanes 3, 6, 9 and 12). Extracts were prepared as previously described (Witthuhn et al., Cell: 227-236 (1993)) and used for immunoprecipitation with the indicated antisera. The immunoprecipitates were resolved by SDS-PAGE, electrophoretically transferred to nitrocellulose and the membranes were probed with the 4G10 monoclonal antibody (UBI) against phosphotyrosine. FIG. 9B: CTLL cells were deprived of growth factors for 14 hr and were either unstimulated (lane 1), stimulated with IL-2 (lane 2) or stimulated with IL-4 (lane 3) as above. Extracts were prepared and used for immunoprecipitation with the Jak3/Jak1 cross-reactive antipeptide antiserum against Tyk2. […]
# To assess the role of Jak3 in signalling, the ability of several cytokines to induce Jak3 tyrosine phosphorylation was examined by immunoprecipitation and western blotting with a monoclonal antibody against phosphotyrosine. […] No tyrosine phosphorylation of Jak2 or Tyk2 was detected with Jak2 or Tyk2 specific antiserum.
substance,measurement,value
"IL-2: IL-2 (Cetus), cytokine",onset of phosphorylation of the Jaks following stimulation,detectable within one minute
